In PMC8924070:

Test: FACS, PD-1-His staining of PD-L1-expressing 293T cells
Conditions: glycan lost; control: PD-1-WT-His

B1: PD-1: PD-1-N58A (protein)
parent chain: MQIPQAPWPVVWAVLQLGWRPGWFLDSPDRPWNPPTFSPALLVVTEGDNATFTCSFSNTSESFVLNWYRMSPSNQTDKLAAFPEDRSQPGQDCRFRVTQLPNGRDFHMSVVRARRNDSGTYLCGAISLAPKAQIKESLRAELRVTERRAEVPTAHPSPSPRPAGQFQTLVVGVVGGLLGSLVLLVWVLAVICSRAARGTIGARRTGQPLKEDPSAVPVFSVDYGELDFQWREKTPEPPVPCVPEQTEYATIVFPSGMGTSSPARRGSADGPRSAQPLRPEDGHCSWPL
Q: Which “other: antibody blocking of PD-1/PD-L1 binding” value does the source give for B1 here?
A: decreases
